The test system of series [1] is HCC827-human-MUC1-C cells. The series can be described thus: FACS-based determination of affinity of chimeric and humanized anti-MUC1-C antibodies. In kind it is binding. As to conditions: Table 17. How it is done:
HCC827-human-MUC1-C cells (in-house constructed overexpression stably transfected cell strain), CHOK1-cyno-MUC1-C cells (in-house constructed overexpression stably transfected cell strain), and T47D cells (human ductal breast cancer cells) were separately digested and added to a 96-well plate at 1E5 cells/well. After the plate was centrifuged at 300 g for 5 min, the supernatant was discarded, and the cells were washed once with a PBS buffer containing 2% FBS. The antibodies were 5-fold diluted from a starting concentration of 20 μg/mL using a PBS buffer containing 2% FBS to obtain a total of 8 concentration gradients. The antibody samples were added at 100 μL/well, and the cells were resuspended and incubated at 4° C. for 1 h. After the plate was centrifuged at 300 g for 5 min, the supernatant was discarded, and the cells were washed twice with a PBS buffer containing 2% FBS. […] After the plate was centrifuged at 300 g for 5 min, the supernatant was discarded, and the cells were washed twice with a PBS buffer containing 2% FBS. The cells were resuspended in 100 μL of a PBS buffer containing 2% FBS and analyzed using an instrument. […] The experimental process was the same as that in Test Example 1 “FACS-Based Determination of Affinity of Chimeric Antibodies”. In addition, CHOK1-human-MUC1-C cells (in-house constructed overexpression stably transfected cell strain) were used for evaluation.

The subject of series [2] is CHOK1-cyno-MUC1-C cells. The description is as above. The series is classed as binding. Further details: key: “+” means that there was binding; “−” means that there was no binding.
In series [3] the test system is HCC827 cells. In words: FACS-based determination of affinity of monoclonal antibodies, bispecific antibodies and ADCs for tumor cells. The series is classed as binding, human. As to conditions: Table 28. The procedure: (§1) The culture medium in the cell culture flask was discarded, and the cells were washed once with PBS and then digested with an appropriate amount of trypsin (Invitrogen, Cat. No. 25200072). HCC827, T47D, and HPAC cells were added to a 96-well plate at 100,000 cells/well. After the plate was centrifuged at 300 g for 5 min, the supernatant was discarded, and the cells were washed once with a PBS buffer containing 2% FBS. The antibodies were 5-fold diluted from a starting concentration of 20 μg/mL using a PBS buffer containing 2% FBS to obtain a total of 8 concentration gradients. The antibody samples were added at 100 μL/well, and the cells were resuspended and incubated at 4° C. for 1 h. After the plate was centrifuged at 300 g for 5 min, the supernatant was discarded, and the cells were washed twice with a PBS buffer containing 2% FBS. […] After the plate was centrifuged at 300 g for 5 min, the supernatant was discarded, and the cells were washed twice with a PBS buffer containing 2% FBS. The cells were resuspended in 100 μL of a PBS buffer containing 2% FBS and analyzed using an instrument.

Series [4] relates to HPAC cells. The description is as above. Conditions: Table 28. The series is classed as binding, human. The procedure:
as §1

In series [5] the test system is HCC827 cells. In words: Determination of endocytic activity (DT3C) of antibodies on tumor cells. The series is classed as cell-based, human. Conditions: Table 29, antibody + DT3C, 72 h, CTG.
The subject of series [6] is HPAC cells. The series is described as above. As to conditions: Table 29, antibody + DT3C, 72 h, CTG. The series is classed as cell-based, human.
The target of series [7] is human EGFR-His antigen (Homo sapiens). The series can be described thus: Determination of affinity of anti-EGFR antibodies using Biacore. As to conditions: Table 22, Biacore 8K, 1:1 binding model. The procedure: • 1. Instrument: Biacore 8K, Cytiva • 2. Material: Protein A biosensor chip (Cat. #29127556, Cytiva) • 3.
The affinity of the antibodies of the present disclosure for the human EGFR-His antigen was determined using a Biacore 8K instrument.
Method: An antibody molecule was affinity-captured by a Protein A biosensor chip, and the antigen molecule, at a certain concentration, was then allowed to flow through the surface of the chip continuously for 180 s, followed by 600 s of natural dissociation. The reaction signals were detected in real time by the Biacore 8K instrument to obtain an association and dissociation curve. After the dissociation in each experimental cycle was complete, the biosensor chip was regenerated with 10 mM glycine-HCl (pH 1.5). Data fitting was performed using the Kinetics 1:1 binding model.

Series [8] deals with human pancreatic acinar epithelial carcinoma cell HPAC tumor-bearing mice. In words: Efficacy of ADCs in in vivo HPAC CDX model. As to conditions: 3mpk, D 1 D 9, intraperitoneal injection.
The test system of series [9] is human non-small cell lung cancer HCC827 tumor-bearing mice. In words: Efficacy of ADCs in in vivo HCC827 CDX model. As to conditions: 3mpk, one dose, intraperitoneal injection.

B1: ChiF4-18: chimeric antibody of F4-18: murine VH/VL (SEQ ID NO: 10/11) with human constant regions (SEQ ID NO: 69/70) (antibody)
heavy: EVQLQQSGAELVRPGSSVKMSCKTSGYTFTSYGINWVKQRPGQGLEWIGYIYLGSDYTEYNEKFKGKATLTSDTTSSTAYMQLSSLTSEDSAIYFCARSAGSLFAYWGQGTLVTVSAASTKGPSVFPLAPSSKSTSGGTAALGCLVKDYFPEPVTVSWNSGALTSGVHTFPAVLQSSGLYSLSSVVTVPSSSLGTQTYICNVNHKPSNTKVDKKV[human IgG1 Fc not spelt out]
light: DIQLTQSPSSLSASLGERVSLTCRASQDIGITLNWLQQEPDGTIKRLIYATSSLDSGVPKRFSGSRSGSDYSLTISSLESEDFVDYYCLQYASSPYTFGGGTKLEIKRTVAAPSVFIFPPSDEQLKSGTASVVCLLNNFYPREAKVQWKVDNALQSGNSQESVTEQDSKDSTYSLSSTLTLSKADYEKHKVYACEVTHQGLSSPVTKSFNRGEC
As for B1, a half-maximal response in [1] (EC50) required 0.946 nM. In [2] (Table 19-4), the Qualitative determination entry is on record as “+”.

B2: ChiM6: chimeric antibody of M6: murine VH/VL (SEQ ID NO: 6/7) with human constant regions (SEQ ID NO: 69/70) (antibody)
heavy: QVQLQQSGAELMKPGASVKLSCKATGYRFIPYWIEWIKERPGHGLEWIGEILPGTGRTNYNEKFKGKATFTADTSSNTAYMQLSSLTTEDSAIYYCARYGDDTSGGYYAVDYWGQGTSVTVSSASTKGPSVFPLAPSSKSTSGGTAALGCLVKDYFPEPVTVSWNSGALTSGVHTFPAVLQSSGLYSLSSVVTVPSSSLGTQTYICNVNHKPSNTKVDKKV[human IgG1 Fc not spelt out]
light: DIVMTQSSASLAMSLGQRATISCRASESVNILGTNLIHWYQQKPGQPPKLLIYHASNLETGVPARFSGSGSRTDFTLTIDPVEEDDVAIYYCLQSRKIPWTFGGGTKLEIKRTVAAPSVFIFPPSDEQLKSGTASVVCLLNNFYPREAKVQWKVDNALQSGNSQESVTEQDSKDSTYSLSSTLTLSKADYEKHKVYACEVTHQGLSSPVTKSFNRGEC
With B2, in [1], the EC50 – broadly, the midpoint of the concentration-response curve – is 2.58 nM. Besides, the Qualitative determination entry in [2] (Table 19-2, Test 1) is reported as “+”; in series [2] (Table 19-2, Test 2), “+”.

B3: ChiF4-1: chimeric antibody of F4-1: murine VH/VL (SEQ ID NO: 8/9) with human constant regions (SEQ ID NO: 69/70) (antibody)
heavy: QIQLQQSGPELVKPGASVKISCKASGYTFTDNYINWVKQRPGQGLEYIGWIYPGSGNNKFNEKFKGKATLTVDTSSRTAFMQLSSLTFEDSAVYFCARDYPFPSYHYGMDYWGQGTSVTVSSASTKGPSVFPLAPSSKSTSGGTAALGCLVKDYFPEPVTVSWNSGALTSGVHTFPAVLQSSGLYSLSSVVTVPSSSLGTQTYICNVNHKPSNTKVDKKV[human IgG1 Fc not spelt out]
light: QILLTQSPAIMSASPGERVTITCSASSSVSYIHWFQQKPGTSPKLWIYSTSNLASGVPPRFSGSGSGTSFSLTVSRMEAEDAATYYCQQRSSYPPTFGGGTKLEIKRTVAAPSVFIFPPSDEQLKSGTASVVCLLNNFYPREAKVQWKVDNALQSGNSQESVTEQDSKDSTYSLSSTLTLSKADYEKHKVYACEVTHQGLSSPVTKSFNRGEC
In turn, B3 showed an EC50 in series [1] of 0.429 nM. In [2] (Table 19-3), the Qualitative determination result is recorded as “+”.

B4: ZalH4: anti-EGFR antibody, zalutumumab variant: VH ZalVH4 (SEQ ID NO: 138), VL ZalVL1 (antibody)
heavy: QVQLVESGGGVVQPGRSLRLSCAASGFTFSTYGMHWVRQAPGKGLEWVAVIWDDGSYKYYGDSVKGRFTISRDNSKNTLYLQMNSLRAEDTAVYYCARDGVTMVRGVMKDYFDYWGQGTLVTVSSASTKGPSVFPLAPSSKSTSGGTAALGCLVKDYFPEPVTVSWNSGALTSGVHTFPAVLQSSGLYSLSSVVTVPSSSLGTQTYICNVNHKPSNTKVDKKV[human IgG1 Fc not spelt out]
light: DIQLTQSPSSLSASVGDRVTITCRASQDISSALVWYQQKPGKAPKLLIYDASSLESGVPSRFSGSESGTDFTLTISSLQPEDFATYYCQQFNSYPLTFGGGTKVEIKRTVAAPSVFIFPPSDEQLKSGTASVVCLLNNFYPREAKVQWKVDNALQSGNSQESVTEQDSKDSTYSLSSTLTLSKADYEKHKVYACEVTHQGLSSPVTKSFNRGEC
In turn, B4 had an EC50 in series [3] of 0.91 nM. For the same molecule, in series [4], the response was half-maximal at 0.7 nM (EC50). Besides, in series [5], the IC50 (commonly the concentration at which inhibition is half-maximal) came to 1.49 nM and the Imax % was determined as 83.88%. For the same molecule, in series [6], the IC50 was 0.103 nM and the Imax % came to 24.44%. Further, in [7], the “ka” value is 47400 M⁻¹ s⁻¹ and the “kd” value was determined as 0.0021 s⁻¹.

B5: ZalH4-9-A: EGFR antibody ZalH4 conjugated to toxin 9-A, average DAR n=5.94 (conjugate)
heavy: QVQLVESGGGVVQPGRSLRLSCAASGFTFSTYGMHWVRQAPGKGLEWVAVIWDDGSYKYYGDSVKGRFTISRDNSKNTLYLQMNSLRAEDTAVYYCARDGVTMVRGVMKDYFDYWGQGTLVTVSSASTKGPSVFPLAPSSKSTSGGTAALGCLVKDYFPEPVTVSWNSGALTSGVHTFPAVLQSSGLYSLSSVVTVPSSSLGTQTYICNVNHKPSNTKVDKKV[human IgG1 Fc not spelt out]
light: DIQLTQSPSSLSASVGDRVTITCRASQDISSALVWYQQKPGKAPKLLIYDASSLESGVPSRFSGSESGTDFTLTISSLQPEDFATYYCQQFNSYPLTFGGGTKVEIKRTVAAPSVFIFPPSDEQLKSGTASVVCLLNNFYPREAKVQWKVDNALQSGNSQESVTEQDSKDSTYSLSSTLTLSKADYEKHKVYACEVTHQGLSSPVTKSFNRGEC
Turning to B5, the “Number of deaths per group” value in series [8] (8 animals per group) is given as 8(0); in series [9] (10 animals per group) it was 10(0). The figures for the “Mean tumor volume D 0” value in series [8] (D 0 (day of grouping)) and in [9] (D 0 (day of grouping)) were 174.14 mm^3 and 154.70 mm^3, respectively.

The values above are taken from US20260232830A1, “ANTIGEN BINDING MOLECULE SPECIFICALLY BINDING TO EGFR AND MUC1, DRUG CONJUGATE THEREOF, AND MEDICAL USE THEREOF” (Jiangsu Hengrui Pharmaceuticals Co., Ltd., priority 2023, published 2026).
